From patent publication US20240300940A1, “Phenothiazinyl Compounds and Uses” (Prosetta Biosciences, Inc., priority 2023, published 2024)

Key:
[1] = system: all the gram-positive species; assay: Minimum bactericidal concentration assay, summary; format: cell-based
Experimental: The study was done based on CLSI document M26-A Wayne, PA: Clinical and laboratory standard institute: 1999.
After determination of a MIC in a broth system under standard conditions, measured aliquots of growth media may be sub-cultured quantitatively to solid media to assess bactericidal activity. To calculate the extent of killing at each antibiotic concentration, plates are incubated under appropriate conditions, colony counts are performed and results are compared to that of the growth control well. The accepted definition of the minimum bactericidal concentration (MBC) is the lowest concentration of test compound at which a 99.9% (3 log) or greater reduction in growth compared with the initial inoculum is observed. Minimum bactericidal concentration of compound 1 against all the gram-positive species was not exceeded >2× MIC indicting its bactericidal mode of killing. (Table 4).

[2] = system: MRSA ATCC43300 (Methicillin resistant)
[3] = system: macrolide resistant S. aureus
[4] = system: vancomycin resistant E. faecium
[5] = system: ciprofloxacin resistant E. faecium
[6] = system: tetracycline resistant S. aureus
[7] = system: chloramphenicol resistant strain
[8] = system: kanamycin resistant strain
Organ exposure in mice = details: mice IV 3 mg/kg
[9] = Mouse plasma pharmacokinetics; details: mice, IV 3 mg/kg single dose

Structure (SMILES): CC1(C)C2CN(c3ccc4nc5ccc(N6CC7C(C6)C7(C)C)cc5[s+]c4c3)CC21 (centres unmarked) [Compound 1, 3,7-Di(6,6-dimethyl-3-azabicyclo[3.1.0]hexan-N-yl)phenothiazinium iodide]
- Minimum bactericidal concentration relative to MIC [1]: ≤ 2 × MIC
- Activity against resistant bacteria in ‘X’ MIC [2]: 1X ‘X’ MIC
- Activity against resistant bacteria in ‘X’ MIC [3]: 1X ‘X’ MIC
- Activity against resistant bacteria in ‘X’ MIC [4]: 1X ‘X’ MIC
- Activity against resistant bacteria in ‘X’ MIC [5]: 1X ‘X’ MIC
- Activity against resistant bacteria in ‘X’ MIC [6]: 1X ‘X’ MIC
- Activity against resistant bacteria in ‘X’ MIC [7]: 1X ‘X’ MIC
- Activity against resistant bacteria in ‘X’ MIC [8]: 1X ‘X’ MIC
- Distribution in kidney and heart (Organ exposure in mice): above the MIC and sufficient to achieve efficacy
- Distribution in lungs and liver (Organ exposure in mice): very high
- AUC and Cmax relative to MIC [9]: more than 10 × MIC
